Values quoted from earlier work, collected in publication PMC9339481 (Nature chemical biology, 2022).

Target: T1, HDAC10 (Homo sapiens, UniProt Q969S8)
T1 sequence (Q969S8 1-669): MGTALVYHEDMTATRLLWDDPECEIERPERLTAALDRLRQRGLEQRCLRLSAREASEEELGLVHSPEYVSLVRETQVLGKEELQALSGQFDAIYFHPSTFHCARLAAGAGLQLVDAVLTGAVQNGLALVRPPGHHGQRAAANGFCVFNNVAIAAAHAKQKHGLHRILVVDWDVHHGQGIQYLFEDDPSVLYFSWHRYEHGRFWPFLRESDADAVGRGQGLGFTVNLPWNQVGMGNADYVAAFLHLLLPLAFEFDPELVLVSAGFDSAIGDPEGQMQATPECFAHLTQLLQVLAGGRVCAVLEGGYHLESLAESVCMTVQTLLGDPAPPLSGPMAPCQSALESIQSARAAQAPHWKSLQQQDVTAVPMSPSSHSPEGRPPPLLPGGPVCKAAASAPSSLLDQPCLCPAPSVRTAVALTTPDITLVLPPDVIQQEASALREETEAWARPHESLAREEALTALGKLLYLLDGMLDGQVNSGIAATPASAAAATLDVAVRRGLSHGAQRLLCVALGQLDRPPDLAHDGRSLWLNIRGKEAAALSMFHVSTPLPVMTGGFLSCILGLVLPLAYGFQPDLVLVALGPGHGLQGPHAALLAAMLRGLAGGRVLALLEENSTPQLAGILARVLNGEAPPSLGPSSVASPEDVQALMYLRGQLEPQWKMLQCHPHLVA
Conditions: reported values; cited from earlier work

With `CCCCN(Cc1ccc(C(=O)NO)cc1)C(=O)Nc1ccccc1` [Nexturastat A] as the compound, how does the “pEC50 HDAC10” value read?
Its value is 5.1.
